Structures can show the parent of a compound that is named as a salt.

Chains of the proteins cited; added tags and fusions are not shown. Residues count along the entry.
UniProt P23458, 875-1153: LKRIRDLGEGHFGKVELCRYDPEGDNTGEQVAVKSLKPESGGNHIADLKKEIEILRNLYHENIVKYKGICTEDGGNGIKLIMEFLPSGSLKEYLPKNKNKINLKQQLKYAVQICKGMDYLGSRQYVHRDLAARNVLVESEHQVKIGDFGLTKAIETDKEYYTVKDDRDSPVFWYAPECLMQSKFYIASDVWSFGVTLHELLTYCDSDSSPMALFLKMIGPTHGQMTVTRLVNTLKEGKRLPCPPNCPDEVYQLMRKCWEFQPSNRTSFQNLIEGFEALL
UniProt O60674, 849-1124: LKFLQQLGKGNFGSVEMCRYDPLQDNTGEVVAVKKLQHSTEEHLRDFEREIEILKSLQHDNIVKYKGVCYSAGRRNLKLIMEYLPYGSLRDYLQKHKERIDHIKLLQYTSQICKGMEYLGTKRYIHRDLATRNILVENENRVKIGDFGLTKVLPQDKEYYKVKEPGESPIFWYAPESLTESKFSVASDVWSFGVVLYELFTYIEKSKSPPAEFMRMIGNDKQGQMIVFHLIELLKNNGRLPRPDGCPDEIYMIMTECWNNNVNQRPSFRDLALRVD

The first experiment addresses T1, JAK1 (recombinant purified GST-tagged catalytic domain) (Homo sapiens (Human), UniProt P23458).
Experiment: not given
Take `N#C[C@H]1C[C@H](O)CC[C@@H]1n1cc(C(N)=O)c(Nc2ccc(S(=O)(=O)C(F)(F)F)cc2)n1` (mixture of isomers) [Example 13-1, 1-[(1S,2S,4R and 1R,2R,4S)-2-cyano-4-hydroxycyclohexyl]-3-({4-[(trifluoromethyl)sulfonyl]phenyl}amino)-1H-pyrazole-4-carboxamide]: the half-maximal inhibitory concentration (IC50) worked out at 0.34 nM.

Consider `N#C[C@H]1C[C@@H](O)CC[C@@H]1n1cc(C(N)=O)c(Nc2ccc(S(=O)(=O)C(F)(F)F)cc2)n1` (mixture of isomers) [Example 13-2, 1-[(1S,2S,4S and 1R,2R,4R)-2-cyano-4-hydroxycyclohexyl]-3-({4-[(trifluoromethyl)sulfonyl]phenyl}amino)-1H-pyrazole-4-carboxamide], for which the 50% inhibitory concentration (IC50) was found to be 0.62 nM.

For `CS(=O)(=O)c1ccc(Nc2nn([C@H]3CCCC[C@@H]3C#N)cc2C(N)=O)cc1` (single isomer, unassigned) [Example 42-1, 1-[(1S,2S or 1R,2R)-2-cyanocyclohexyl]-3-{[4-(methylsulfonyl)phenyl]amino}-1H-pyrazole-4-carboxamide], the IC50 came to 0.25 nM.

For `CS(=O)(=O)c1ccc(Nc2nn([C@H]3CCCC[C@@H]3C#N)cc2C(N)=O)cc1` (single isomer, unassigned) [Example 42-2, 1-[(1S,2S or 1R,2R)-2-cyanocyclohexyl]-3-{[4-(methylsulfonyl)phenyl]amino}-1H-pyrazole-4-carboxamide], the IC50 is 3 nM.

For the molecule `CS(=O)(=O)c1ccc(Nc2nn([C@H]3CCCC[C@H]3C#N)cc2C(N)=O)cc1` (single isomer, unassigned) [Example 42-3, 1-[(1S,2R or 1R,2S)-2-cyanocyclohexyl]-3-{[4-(methylsulfonyl)phenyl]amino}-1H-pyrazole-4-carboxamide], the IC50 worked out at 32 nM.

For `CS(=O)(=O)c1ccc(Nc2nn([C@H]3CCCC[C@H]3C#N)cc2C(N)=O)cc1` (single isomer, unassigned) [Example 42-4, 1-[(1S,2R or 1R,2S)-2-cyanocyclohexyl]-3-{[4-(methylsulfonyl)phenyl]amino}-1H-pyrazole-4-carboxamide], the half-inhibitory concentration (IC50) was found to be 2 nM.

With `CS(=O)(=O)c1ccc(Nc2nn(C3CCCCC3C#N)cc2C(N)=O)cc1` (stereo not shown) [Example 2-15, 1-(2-cyanocyclohexyl)-3-{[4-(methylsulfonyl)phenyl]amino}-1H-pyrazole-4-carboxamide], the IC50 worked out at 0.6 nM.

As for `CN(C)[C@@H]1CC[C@@H](n2cc(C(N)=O)c(Nc3ccc(OC(F)F)nc3)n2)[C@H](C#N)C1` [Example 28-31, 1-[(1R,2R,4R pr 1S,2S,4S)-2-cyano-4-(dimethylamino)cyclohexyl]-3-{[6-(difluoromethoxy)pyridin-3-yl]amino}-1H-pyrazole-4-carboxamide], the concentration for half-maximal inhibition (IC50) was determined as 105 nM.

A further experiment deals with T2, JAK2 (recombinant purified GST-tagged catalytic domain) (Homo sapiens (Human), UniProt O60674).
Experiment: not given
With `N#C[C@H]1C[C@H](O)CC[C@@H]1n1cc(C(N)=O)c(Nc2ccc(S(=O)(=O)C(F)(F)F)cc2)n1` (mixture of isomers) [Example 13-1, 1-[(1S,2S,4R and 1R,2R,4S)-2-cyano-4-hydroxycyclohexyl]-3-({4-[(trifluoromethyl)sulfonyl]phenyl}amino)-1H-pyrazole-4-carboxamide], the concentration for half-maximal inhibition (IC50) came out at 5 nM.

As for `N#C[C@H]1C[C@@H](O)CC[C@@H]1n1cc(C(N)=O)c(Nc2ccc(S(=O)(=O)C(F)(F)F)cc2)n1` (mixture of isomers) [Example 13-2, 1-[(1S,2S,4S and 1R,2R,4R)-2-cyano-4-hydroxycyclohexyl]-3-({4-[(trifluoromethyl)sulfonyl]phenyl}amino)-1H-pyrazole-4-carboxamide], the concentration for half-maximal inhibition (IC50) came to 9 nM.

Take `CN(C)[C@H]1CC[C@H](n2cc(C(N)=O)c(Nc3ccc(S(=O)(=O)C(F)(F)F)cc3)n2)[C@@H](C#N)C1` (mixture of isomers) [Example 27-1, 1-[(1S,3S,4S and 1R,3R,4R)-4-[4-carbamoyl-3-({4-[(trifluoromethyl)sulfonyl]phenyl}amino)-1H-pyrazol-1-yl]-3-cyano-N,N-dimethylcyclohexanaminium trifluoroacetate]: the IC50 worked out at 5 nM.

With `CN(C)[C@@H]1CC[C@H](n2cc(C(N)=O)c(Nc3ccc(S(=O)(=O)C(F)(F)F)cc3)n2)[C@@H](C#N)C1` (mixture of isomers) [Example 27-2, 1-[(1R,3S,4S and 1S,3R,4R)-4-[4-carbamoyl-3-({4-[(trifluoromethyl)sulfonyl]phenyl}amino)-1H-pyrazol-1-yl]-3-cyano-N,N-dimethylcyclohexanaminium trifluoroacetate], the IC50 came out at 12 nM.

Consider `N#C[C@H]1C[C@@H](N2CC3(COC3)C2)CC[C@@H]1n1cc(C(N)=O)c(Nc2ccc(C(F)(F)F)cc2)n1` (single isomer, unassigned) [Example 28-120, 1-[(1S,2S,4S or 1R,2R,4R )-2-cyano-4-(2-oxa-6-azaspiro[3.3]hept-6-yl)cyclohexyl]-3-{[4-(trifluoromethyl)phenyl]amino}-1H-pyrazole-4-carboxamide], for which the IC50 amounted to 20 nM.

On to `CC1(C)CN([C@H]2CC[C@H](n3cc(C(N)=O)c(Nc4ccnc(F)c4)n3)[C@@H](C#N)C2)C1` (single isomer, unassigned) [Example 28-134, 1-[(1S,2S,4S or 1R,2R,4R )-2-cyano-4-(3,3-dimethylazetidin-1-yl)cyclohexyl]-3-[(2-fluoropyridin-4-yl)amino]-1H-pyrazole-4-carboxamide], for which the IC50 was determined as 50 nM.

As to `CC1(N[C@H]2CCC(n3cc(C(N)=O)c(Nc4ccc(Cl)cc4)n3)[C@@H](C#N)C2)CC1` (single isomer, unassigned) [Example 28-205, 3-[(4-chlorophenyl)amino]-1-{(1S,2S,4S or 1R,2R,4R,)-2-cyano-4-[(1-methylcyclopropyl)amino]cyclo-hexyl}-1H-pyrazole-4-carboxamide], the half-inhibitory concentration (IC50) was 21 nM.

Consider `CS(=O)(=O)c1ccc(Nc2nn([C@H]3CCCC[C@@H]3C#N)cc2C(N)=O)cc1` (single isomer, unassigned) [Example 42-1, 1-[(1S,2S or 1R,2R)-2-cyanocyclohexyl]-3-{[4-(methylsulfonyl)phenyl]amino}-1H-pyrazole-4-carboxamide], for which the IC50 worked out at 3 nM.

For `N#C[C@H]1CCCC[C@@H]1n1cc(C(N)=O)c(Nc2ccc(S(=O)(=O)C(F)(F)F)cc2)n1` (single isomer, unassigned) [Example 43-1, 1-[(1S,2S or 1R,2R)-2-cyanocyclohexyl]-3-({4-[(trifluoromethyl)sulfonyl]phenyl}amino)-1H-pyrazole-4-carboxamide], the IC50 is 119 nM.

Consider `N#C[C@H]1CCCC[C@@H]1n1cc(C(N)=O)c(Nc2ccc(S(=O)(=O)C(F)(F)F)cc2)n1` (single isomer, unassigned) [Example 43-2, 1-[(1S,2S or 1R,2R)-2-cyanocyclohexyl]-3-({4-[(trifluoromethyl)sulfonyl]phenyl}amino)-1H-pyrazole-4-carboxamide], for which the half-maximal inhibitory concentration (IC50) came out at 9 nM.

On to `CN(C)[C@@H]1CC[C@@H](n2cc(C(N)=O)c(Nc3ccc(OC(F)F)nc3)n2)[C@H](C#N)C1` [Example 28-31, 1-[(1R,2R,4R pr 1S,2S,4S)-2-cyano-4-(dimethylamino)cyclohexyl]-3-{[6-(difluoromethoxy)pyridin-3-yl]amino}-1H-pyrazole-4-carboxamide], for which the IC50 is 1100 nM.

The next experiment concerns the target T1, JAK1 (recombinant purified GST-tagged catalytic domain). The experiment is described as follows: biochemical.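 Note: biochemical assay with HTRF read-out.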
Consider `N#C[C@H]1CCCC[C@@H]1n1cc(C(N)=O)c(Nc2ccccc2)n1` (racemic) [Example 2-1, 1-((1S,2S and 1R,2R)-2-cyanocyclohexyl)-3-(phenylamino)-1H-pyrazole-4-carboxamide], for which the IC50 was determined as 3 nM.

`C[C@@H](N[C@H]1CC[C@H](n2cc(C(N)=O)c(Nc3ccc(S(=O)(=O)C(F)(F)F)cc3)n2)[C@@H](C#N)C1)C1CC1` (single isomer, unassigned) [Example 28-182, 1-[(1S,2S,4S or 1R,2R,4R)-2-cyano-4-{[(1R)-1-cyclopropylethyl]amino}cyclo-hexyl]-3-({4-[(trifluoromethyl)sulfonyl]phen-yl}amino)-1H-pyrazole-4-carboxamide]: the IC50 is 0.15 nM.

Turning to `CC(C)(c1ccc(Nc2nn([C@H]3CC[C@@](C)(O)C[C@@H]3C#N)cc2C(N)=O)cc1)C(O)C(F)(F)F` (single isomer, unassigned) [Example 32-2, 1-[(1S,2S,4R or 1R,2R,4S)-2-cyano-4-hydroxy-4-methylcyclohexyl]-3-{[4-(3,3,3-trifluoro-(2R or 2S)-hydroxy-1,1-dimethylpropyl)phenyl]amino}-1H-pyrazole-4-carboxamide], the IC50 was found to be 1 nM.

Regarding `CC(C)(c1ccc(Nc2nn([C@H]3CC[C@](C)(O)C[C@@H]3C#N)cc2C(N)=O)cc1)C(O)C(F)(F)F` (single isomer, unassigned) [Example 32-3, 1-[(1S,2S,4S or 1R,2R,4R)-2-cyano-4-hydroxy-4-methylcyclohexyl]-3-{[4-(3,3,3-trifluoro-(2R or 2S)-hydroxy-1,1-dimethylpropyl)phenyl]amino}-1H-pyrazole-4-carboxamide], the half-maximal inhibitory concentration (IC50) came to 0.7 nM.

As to `CC(C)(c1ccc(Nc2nn([C@H]3CC[C@](C)(O)C[C@@H]3C#N)cc2C(N)=O)cc1)C(O)C(F)(F)F` (single isomer, unassigned) [Example 32-4, 1-[(1S,2S,4S or 1R,2R,4R)-2-cyano-4-hydroxy-4-methylcyclohexyl]-3-{[4-(3,3,3-trifluoro-(2R or 2S)-hydroxy-1,1-dimethylpropyl)phenyl]amino}-1H-pyrazole-4-carboxamide], the half-maximal inhibitory concentration (IC50) came out at 0.35 nM.

Consider `N#C[C@H]1C[C@@H](O)CC[C@@H]1n1cc(C(N)=O)c(Nc2ccc(C3CC3)cc2)n1` (single isomer, unassigned) [Example 33-18, 1-[(1S,2S,4S or 1R,2R,4R)-2-cyano-4-hydroxycyclohexyl]-3-[(4-cyclopropylphenyl)amino]-1H-pyrazole-4-carboxamide], for which the IC50 turned out to be 3 nM.

The target in another experiment is T2, JAK2 (recombinant purified GST-tagged catalytic domain). Nature of the experiment: biochemical.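 Note: biochemical JAK kinase assay with HTRF detection.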
Consider `CN(C)[C@H]1CC[C@@H](n2cc(C(N)=O)c(Nc3ccc(OC(F)F)nc3)n2)[C@H](C#N)C1` (single isomer, unassigned) [Example 28-12, 1-[(1R,2R,4S or 1S,2S,4R)-2-cyano-4-(dimethylamino)cyclohexyl]-3-{[6-(difluoromethoxy)pyridin-3-yl]amino}-1H-pyrazole-4-carboxamide], for which the concentration for half-maximal inhibition (IC50) was above 1500 nM.

For the molecule `N#C[C@H]1C[C@@H](C(=O)N2CC(F)(F)C2)CC[C@@H]1n1cc(C(N)=O)c(Nc2ccc(Cl)cc2)n1` (single isomer, unassigned) [Example 35-6, 3-[(4-chlorophenyl)amino]-1-{(1S,2S,4S or 1R,2R,4R)-2-cyano-4-[(3,3-difluoroazetidin-1-yl)carbonyl]cyclohexyl}-1H-pyrazole-4-carboxamide], the IC50 was above 500 nM.

In the case of `N#C[C@H]1C[C@@H](C(=O)N[C@H](C2CC2)C(F)(F)F)CC[C@@H]1n1cc(C(N)=O)c(Nc2ccc(Cl)cc2)n1` (single isomer, unassigned) [Example 35-14, 3-[(4-chlorophenyl)amino]-1-[(1S,2S,4S or 1R,2R,4R)-2-cyano-4-{[(1R)-1-cyclopropyl-2,2,2-trifluoroethyl]carbamoyl}cyclohexyl]-1H-pyrazole-4-carboxamide], the IC50 was above 500 nM.

For orientation: IC50 means the concentration at which inhibition is half-maximal.

The record behind these values is US8962608B2, “Cycloalkylnitrile pyrazole carboxamides as janus kinase inhibitors” (Merck Sharp & Dohme Corp., priority 2011, dated 2015).
